{
  "source": "patent US20220184032A1",
  "about": "“INDOLINE DERIVATIVES FOR TREATMENT AND/OR PREVENTION OF FIBROSIS DISEASES” (Taipei Medical University, priority 2015, published 2022)",
  "system": "CHO",
  "conditions": "reference compound, second section (CHO + S9, HCA), 3.0E−07 M",
  "data": [
    {"smiles": "CO[C@@]12[C@H](COC(N)=O)C3=C(C(=O)C(C)=C(N)C3=O)N1C[C@@H]1N[C@@H]12", "note": "[Mitomycin C, reference compound]", "values": [
      {"measurement": "Test Result", "value": "+ (p < 0.05 by t-test and % of micronucleated cells at least 3-fold higher than background levels.)"}
    ]}
  ]
}
